Reference: ChEMBL document CHEMBL4373696, “Probing the Existence of a Metastable Binding Site at the β2-Adrenergic Receptor with Homobivalent Bitopic Ligands” (J Med Chem, 2019)

Sequences of proteins named here, by UniProt entry; tags and fusion partners are left off.
UniProt P08588, whole entry: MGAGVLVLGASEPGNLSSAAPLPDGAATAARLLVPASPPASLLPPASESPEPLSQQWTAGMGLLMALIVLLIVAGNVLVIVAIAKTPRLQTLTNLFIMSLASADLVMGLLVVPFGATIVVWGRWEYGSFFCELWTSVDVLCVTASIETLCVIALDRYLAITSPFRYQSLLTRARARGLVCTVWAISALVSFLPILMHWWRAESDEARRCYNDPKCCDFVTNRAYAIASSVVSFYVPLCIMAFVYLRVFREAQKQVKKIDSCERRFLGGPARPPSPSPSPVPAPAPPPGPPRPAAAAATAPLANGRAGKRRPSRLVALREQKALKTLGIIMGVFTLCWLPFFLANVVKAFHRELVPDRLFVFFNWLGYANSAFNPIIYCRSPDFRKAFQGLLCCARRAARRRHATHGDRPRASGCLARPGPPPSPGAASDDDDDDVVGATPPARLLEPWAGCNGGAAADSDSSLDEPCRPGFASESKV

Assays:
[1] = target: T1, Beta-1 adrenergic receptor (Homo sapiens, UniProt P08588); experiment: Displacement of [3H]DHA from beta1 adrenergic receptor (unknown origin) stably expressed in HEK293 cell membranes measured after 90 mins by scintillation counting analysis
[2] = target: T1, Beta-1 adrenergic receptor; experiment: Antagonist activity at beta1 adrenergic receptor (unknown origin) stably expressed in HEK293 cell membranes assessed as inhibition of isoproterenol-induced cAMP production preincubated for 15 mins followed by isoproterenol addition and measured after 30 mins by TR-FRET assay; assay type: cell-based
In short: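 Membranes from HEK293 cells stably overexpressing β1AR; ligand's blockade of isoproterenol-stimulated cAMP production measured; pIC50 as mean ± SEM from 3-8 independent experiments run in duplicate.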

C=CCc1ccccc1OC[C@@H](O)CNC(C)C
Ki [1]: 1.45 nM

C=CCc1ccccc1OC[C@H](O)CNC(C)C
Ki [1]: 64.6 nM
IC50 [2]: 437 nM

C=CCc1ccccc1OCC(O)CNC(C)C (racemic) [ALPRENOLOL]
IC50 [2]: 13.8 nM
